Data from PMC12559223, “Structural basis of apoptosis induction by the mitochondrial voltage-dependent anion channel” (Nature Communications, 2025).
Positions of bridges follow the written chain, without caps; N, C: chain ends. Non-standard residues stand in square brackets, D forms with d. Residues, ends and D or L forms follow the SMILES beside them. S5 = C=CCCC[C@](C)(N)C(=O)O

What was measured:
BakΔTM = experiment: Liposome pore-forming assay, direct activation of Bak without BclxL; assay type: biochemical
Description: The liposome permeabilization assays were performed at 30 °C on a SpectraMax iD5 multimode plate reader (Molecular Devices) controlled by the SoftMax Pro 7 software as previously described[66],[91]. Briefly, 40–50 nM cBid, 50 nM BclxLΔTM, and 1–100 µM VDAC-N peptides were used for measurements at low BakΔTM concentrations (50–200 nM), whereas 1 µM BakΔTM and 500 nM BclxLΔTM were used for measurements under auto-active BakΔTM conditions. VDAC1-N peptide was titrated into the Bak-BclxL complex from 10 to 100 µM under cBid-activated conditions and from 25 to 100 µM under auto-active BakΔTM conditions. For comparison of VDAC1-N WT peptide to VDAC1-N L10A (refer to Supplementary Table 4 for peptide sequences), 100 µM of either VDAC1-N peptide was added into the Bak-BclxL complex under cBid-activated conditions. […] For this experiment, Bad-BH3 peptide was titrated into the Bak-BclxL complex from 1 to 100 nM under cBid-activated conditions. The liposomes were prepared with the following lipid composition (mass percentage) to mimic the outer mitochondrial membrane (OMM), as previously described. Briefly, the OMM-like lipids were prepared by combining 38% L-α-phosphatidylcholine (PC), 25% L-α-phosphatidylethanolamine (PE), 10% L-α-phosphatidylinositol (PI), 10% 1,2-dioleyl-sn-glycero-3-phospho-L-serine (DOPS), 7% 1,1′,2,2′-tetra-(9Z-octadecenoyl)cardiolipin, and 10% 18:1 DGS-NTA (Ni^2+). For the liposome permeabilization assay at low BakΔTM concentrations (50–200 nM), 2–5% 18:1 DGS-NTA (Ni^2+) was used, and the mass of PC was adjusted to compensate. The lipids (5 mg) were mixed in chloroform and dried under nitrogen gas flow, resuspended in 0.25 mL of assay buffer (10 mM HEPES, pH 7.0, 200 mM KCl, 5 mM MgCl2), sonicated in a sonication bath until homogenous, subjected to five freeze-thaw cycles, then extruded using a 100 nm polycarbonate membrane. The liposomes were prepared with the addition of the polyanionic dye 8-aminoaphthalene-1,3,6-trisulfonic acid (ANTS) and the cationic quencher p-xylene-bis-pyridinium bromide (DPX) as described[66],[91]. For experiments at low BakΔTM concentrations (50–200 nM), 0.05–0.15 mg/mL OMM-like lipids doped with 2–5% (w/w) 18:1 DGS-NTA (Ni^2+) were used. For experiments under BakΔTM auto-active conditions, 0.3 mg/mL OMM-like lipids doped with 10% (w/w) 18:1 DGS-NTA (Ni^2+) were used. All resulting data were averaged from three technical replicates unless a clear outlier due to experimental artifact was removed. Data analysis was performed by first normalizing to the minimum value in each dataset, then calculating the mean for the technical replicates. […] The data are represented as relative ANTS fluorescence (%).

Bak-BclxL complex [1] = experiment: Liposome permeabilization (pore-forming) assay, cBid-activated Bak inhibited by BclxL; assay type: biochemical, human
Bak-BclxL complex [2] = experiment: Liposome permeabilization (pore-forming) assay, auto-active BakΔTM conditions, inhibited by BclxL; assay type: biochemical, human
Description: The liposome permeabilization assays were performed at 30 °C on a SpectraMax iD5 multimode plate reader (Molecular Devices) controlled by the SoftMax Pro 7 software as previously described[66],[91]. Briefly, 40–50 nM cBid, 50 nM BclxLΔTM, and 1–100 µM VDAC-N peptides were used for measurements at low BakΔTM concentrations (50–200 nM), whereas 1 µM BakΔTM and 500 nM BclxLΔTM were used for measurements under auto-active BakΔTM conditions. VDAC1-N peptide was titrated into the Bak-BclxL complex from 10 to 100 µM under cBid-activated conditions and from 25 to 100 µM under auto-active BakΔTM conditions. For comparison of VDAC1-N WT peptide to VDAC1-N L10A (refer to Supplementary Table 4 for peptide sequences), 100 µM of either VDAC1-N peptide was added into the Bak-BclxL complex under cBid-activated conditions. […] For this experiment, Bad-BH3 peptide was titrated into the Bak-BclxL complex from 1 to 100 nM under cBid-activated conditions. The liposomes were prepared with the following lipid composition (mass percentage) to mimic the outer mitochondrial membrane (OMM), as previously described. Briefly, the OMM-like lipids were prepared by combining 38% L-α-phosphatidylcholine (PC), 25% L-α-phosphatidylethanolamine (PE), 10% L-α-phosphatidylinositol (PI), 10% 1,2-dioleyl-sn-glycero-3-phospho-L-serine (DOPS), 7% 1,1′,2,2′-tetra-(9Z-octadecenoyl)cardiolipin, and 10% 18:1 DGS-NTA (Ni^2+). For the liposome permeabilization assay at low BakΔTM concentrations (50–200 nM), 2–5% 18:1 DGS-NTA (Ni^2+) was used, and the mass of PC was adjusted to compensate. The lipids (5 mg) were mixed in chloroform and dried under nitrogen gas flow, resuspended in 0.25 mL of assay buffer (10 mM HEPES, pH 7.0, 200 mM KCl, 5 mM MgCl2), sonicated in a sonication bath until homogenous, subjected to five freeze-thaw cycles, then extruded using a 100 nm polycarbonate membrane. The liposomes were prepared with the addition of the polyanionic dye 8-aminoaphthalene-1,3,6-trisulfonic acid (ANTS) and the cationic quencher p-xylene-bis-pyridinium bromide (DPX) as described[66],[91]. For experiments at low BakΔTM concentrations (50–200 nM), 0.05–0.15 mg/mL OMM-like lipids doped with 2–5% (w/w) 18:1 DGS-NTA (Ni^2+) were used. For experiments under BakΔTM auto-active conditions, 0.3 mg/mL OMM-like lipids doped with 10% (w/w) 18:1 DGS-NTA (Ni^2+) were used. All resulting data were averaged from three technical replicates unless a clear outlier due to experimental artifact was removed. Data analysis was performed by first normalizing to the minimum value in each dataset, then calculating the mean for the technical replicates. The data represented in each of the figures was scaled such that 0 represents the BakΔTM-BclxLΔTM complex and 1 represents either auto-activated BakΔTM or cBid-activated BakΔTM. The data are represented as relative ANTS fluorescence (%).

Structure (SMILES): CSCC[C@H](N)C(=O)N[C@@H](C)C(=O)N[C@H](C(=O)N1CCC[C@H]1C(=O)N1CCC[C@H]1C(=O)N[C@H](C(=O)N[C@@H](Cc1ccc(O)cc1)C(=O)N[C@@H](C)C(=O)N[C@@H](CC(=O)O)C(=O)N[C@@H](CC(C)C)C(=O)NCC(=O)N[C@@H](CCCCN)C(=O)N[C@@H](CO)C(=O)N[C@@H](C)C(=O)N[C@@H](CCCNC(=N)N)C(=O)N[C@@H](CC(=O)O)C(=O)N[C@H](C(=O)N[C@@H](Cc1ccccc1)C(=O)N[C@H](C(=O)N[C@@H](CCCCN)C(=O)NCC(=O)N[C@@H](Cc1ccc(O)cc1)C(=O)NCC(=O)N[C@@H](Cc1ccccc1)C(=O)O)[C@@H](C)O)C(C)C)[C@@H](C)O)C(C)C [VDAC1-N]
- direct activation of Bak pore formation (in words) (BakΔTM; linear peptide 1 mM, Bak 50 nM): do not directly activate Bak
- direct activation of Bak pore formation (in words) (BakΔTM; peptide 70 µM, Bak 50 nM): does not lead to Bak activation

Structure (SMILES): CC(C)C[C@H](NC(=O)[C@H](CC(=O)O)NC(=O)[C@H](C)NC(=O)[C@@H](N)Cc1ccc(O)cc1)C(=O)N[C@@]1(C)CCCC=CCCC[C@@](C)(C(=O)N[C@@H](CC(=O)O)C(=O)N[C@H](C(=O)N[C@@H](Cc2ccccc2)C(=O)N[C@H](C(=O)N[C@@H](CCCCN)C(=O)NCC(=O)O)[C@@H](C)O)C(C)C)NC(=O)[C@H](C)NC(=O)[C@H](CO)NC(=O)[C@H](CCCCN)NC1=O [stVDAC1-N] (H-YADL[S5]KSA[S5]DVFTKG-OH; staple 5-9; N-terminus and C-terminus assumed)
- relative ANTS fluorescence (Bak pore formation) (Bak-BclxL complex [1]; as E12, stVDAC1-N 10 µM, replicate 1): 0.09107
- relative ANTS fluorescence (Bak pore formation) (Bak-BclxL complex [1]; as E12, stVDAC1-N 10 µM, replicate 2): -0.01668
- relative ANTS fluorescence (Bak pore formation) (Bak-BclxL complex [1]; as E12 but stVDAC1-N 25 µM (row VDAC25), mean of n = 3 technical replicates): 0.4925
- relative ANTS fluorescence (Bak pore formation) (Bak-BclxL complex [1]; as E12 but stVDAC1-N 25 µM, replicate 1): 0.4653
- relative ANTS fluorescence (Bak pore formation) (Bak-BclxL complex [1]; as E12 but stVDAC1-N 25 µM, replicate 2): 0.51
- relative ANTS fluorescence (Bak pore formation) (Bak-BclxL complex [1]; as E12 but stVDAC1-N 25 µM, replicate 3): 0.5021
- relative ANTS fluorescence (Bak pore formation) (Bak-BclxL complex [1]; as E12 but stVDAC1-N 50 µM (row VDAC50), mean of n = 3 technical replicates): 0.571
- relative ANTS fluorescence (Bak pore formation) (Bak-BclxL complex [1]; as E12 but stVDAC1-N 50 µM, replicate 1): 0.5785
- relative ANTS fluorescence (Bak pore formation) (Bak-BclxL complex [1]; as E12 but stVDAC1-N 50 µM, replicate 2): 0.6003
- relative ANTS fluorescence (Bak pore formation) (Bak-BclxL complex [1]; as E12 but stVDAC1-N 50 µM, replicate 3): 0.534
- relative ANTS fluorescence (Bak pore formation) (Bak-BclxL complex [1]; as E12 but stVDAC1-N 75 µM (row VDAC75), mean of n = 3 technical replicates): 0.9595
- relative ANTS fluorescence (Bak pore formation) (Bak-BclxL complex [1]; as E12 but stVDAC1-N 75 µM, replicate 1): 0.889
- relative ANTS fluorescence (Bak pore formation) (Bak-BclxL complex [1]; as E12 but stVDAC1-N 75 µM, replicate 2): 0.9981
- relative ANTS fluorescence (Bak pore formation) (Bak-BclxL complex [1]; as E12 but stVDAC1-N 75 µM, replicate 3): 0.9914
- relative ANTS fluorescence (Bak pore formation) (Bak-BclxL complex [1]; as E12 but stVDAC1-N 100 µM (row VDAC100), mean of n = 3 technical replicates): 0.9103
- relative ANTS fluorescence (Bak pore formation) (Bak-BclxL complex [1]; as E12 but stVDAC1-N 100 µM, replicate 1): 0.8985
- relative ANTS fluorescence (Bak pore formation) (Bak-BclxL complex [1]; as E12 but stVDAC1-N 100 µM, replicate 2): 0.9408
- relative ANTS fluorescence (Bak pore formation) (Bak-BclxL complex [1]; as E12 but stVDAC1-N 100 µM, replicate 3): 0.8916
- relative ANTS fluorescence (Bak pore formation) (Bak-BclxL complex [1]; stVDAC1-N 10 µM (row VDAC10), 50 nM BakΔTM, 40 nM cBid, 50 nM BclxLΔTM, 30 °C, averaged 3500-4000 s, scaled 0 = Bak-BclxL complex, 1 = cBid-activated Bak, mean of technical replicates): 0.0372
- relative ANTS fluorescence (Bak pore formation), scaled to max (Bak-BclxL complex [2]; as E35, stVDAC1-N 25 µM, replicate 1): -0.0292
- relative ANTS fluorescence (Bak pore formation), scaled to max (Bak-BclxL complex [2]; as E35, stVDAC1-N 25 µM, replicate 2): 0.04874
- relative ANTS fluorescence (Bak pore formation), scaled to max (Bak-BclxL complex [2]; as E35 but stVDAC1-N 50 µM (row Mix50), mean of technical replicates): 0.3276
- relative ANTS fluorescence (Bak pore formation), scaled to max (Bak-BclxL complex [2]; as E35 but stVDAC1-N 50 µM, replicate 1): 0.2297
- relative ANTS fluorescence (Bak pore formation), scaled to max (Bak-BclxL complex [2]; as E35 but stVDAC1-N 50 µM, replicate 2): 0.2994
- relative ANTS fluorescence (Bak pore formation), scaled to max (Bak-BclxL complex [2]; as E35 but stVDAC1-N 50 µM, replicate 3): 0.4536
- relative ANTS fluorescence (Bak pore formation), scaled to max (Bak-BclxL complex [2]; as E35 but stVDAC1-N 75 µM (row Mix75), mean of technical replicates): 0.532
- relative ANTS fluorescence (Bak pore formation), scaled to max (Bak-BclxL complex [2]; as E35 but stVDAC1-N 75 µM, replicate 1): 0.33
- relative ANTS fluorescence (Bak pore formation), scaled to max (Bak-BclxL complex [2]; as E35 but stVDAC1-N 75 µM, replicate 2): 0.4526
- relative ANTS fluorescence (Bak pore formation), scaled to max (Bak-BclxL complex [2]; as E35 but stVDAC1-N 75 µM, replicate 3): 0.8134
- relative ANTS fluorescence (Bak pore formation), scaled to max (Bak-BclxL complex [2]; as E35 but stVDAC1-N 100 µM (row Mix100), mean of technical replicates): 0.7453
- relative ANTS fluorescence (Bak pore formation), scaled to max (Bak-BclxL complex [2]; as E35 but stVDAC1-N 100 µM, replicate 1): 0.6966
- relative ANTS fluorescence (Bak pore formation), scaled to max (Bak-BclxL complex [2]; as E35 but stVDAC1-N 100 µM, replicate 2): 0.663
- relative ANTS fluorescence (Bak pore formation), scaled to max (Bak-BclxL complex [2]; as E35 but stVDAC1-N 100 µM, replicate 3): 0.8764
- effect on pore-forming activity of BclxL-inhibited Bak (in words) (Bak-BclxL complex [2]; autoactivation conditions: 1 µM BakΔTM, 500 nM BclxLΔTM, peptide 25-100 µM): concentration-dependent increase in the pore-forming activity of Bak
- relative ANTS fluorescence (Bak pore formation), scaled to max (Bak-BclxL complex [2]; stVDAC1-N 25 µM (row Mix25), 1 µM BakΔTM (auto-active), 500 nM BclxLΔTM, 30 °C, averaged 4000-5000 s, scaled 0 = Bak-BclxL, 1 = auto-activated Bak, mean of at least two technical replicates): 0.009771
- direct activation of Bak pore formation (in words) (BakΔTM; peptide 40 µM, BakΔTM 50 nM, no BclxL, no cBid): cannot directly activate pore formation of Bak
- direct activation of Bak pore formation (in words) (BakΔTM; stapled peptide 100 µM, Bak 50 nM): do not directly activate Bak
